Experimental data published in US20220340916A1, “METHODS FOR TRANSFORMING WHEAT EXPLANTS AND COMPOSITIONS THEREFOR” (MONSANTO TECHNOLOGY LLC, priority 2013, published 2022).

Tested on: WDSDEs
Test: Quality of WDSDEs excised from seeds sanitized in various ways (cleanliness, viability)
Conditions: seed sanitization; 10% Clorox bleach; ethanol used cold (~0° C.)

Substance: H2O2
- cleanliness of WDSDEs excised from treated seed: less efficient
